As a reminder, the Kd is the free concentration of one partner at which half of the binding sites on the other are occupied at equilibrium, for simple one-to-one binding.

This assay has as its target T1, GST-Cbl(TKB) (Homo sapiens, UniProt P22681).
T1 sequence (P22681 47-351 limits assumed): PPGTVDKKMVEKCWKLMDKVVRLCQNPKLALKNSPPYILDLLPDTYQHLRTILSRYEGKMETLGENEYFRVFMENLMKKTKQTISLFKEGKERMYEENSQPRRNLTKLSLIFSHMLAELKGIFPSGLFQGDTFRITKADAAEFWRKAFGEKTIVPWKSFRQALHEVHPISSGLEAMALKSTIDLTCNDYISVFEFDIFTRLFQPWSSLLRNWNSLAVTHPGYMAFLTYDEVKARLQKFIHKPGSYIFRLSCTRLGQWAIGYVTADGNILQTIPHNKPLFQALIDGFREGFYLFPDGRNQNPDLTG
Briefly: Fluorescence polarization direct binding of labeled ZAP70 peptide to GST-Cbl.

As to `CC(C)C[C@H](NC(=O)[C@@H](NC(=O)CCNC(=O)c1ccc2c(c1)C(=O)OC21c2ccc(O)cc2Oc2cc(O)ccc21)[C@@H](C)O)C(=O)N[C@@H](CC(N)=O)C(=O)N[C@@H](CO)C(=O)N[C@@H](CC(=O)O)C(=O)NCC(=O)N[C@@H](Cc1ccc(OP(=O)(O)O)cc1)C(=O)N[C@H](C(=O)N1CCC[C@H]1C(=O)N[C@@H](CCC(=O)O)C(=O)N1CCC[C@H]1C(=O)N[C@@H](C)C(N)=O)[C@@H](C)O` [ZAP70 peptide 1, Flu-βA-TLNSDGpYTPEPA-CONH2], binding was put at a Kd of 1.2 ± 0.2 µM.

The values are drawn from PMC3078584 (Analytical biochemistry, 2010).
